# How the values were obtained:
# [1] = test system: hESC-derived neural crest cells (NCC); settings: human
# [2] = test system: mESC-derived neural stem cells (mESCn); settings: mouse
# [3] = test system: HEK293 cells; settings: human
structure (smiles),measurement,setting,value
CCCCc1oc2ccccc2c1C(=O)c1cc(I)c(OCCN(CC)CC)c(I)c1 [Amiodarone],Concentration for hit finding in NCC (highest non-cytotoxic concentration in the UKN2 test system),[1],10 µM
same,Highest non-cytotoxic conc. in mESCn,[2],460.0 nM
same,Highest non-cytotoxic conc. in HEK293,[3],10.0 µM
